The record followed here is US20140107143A1, “QUATERNARY OPIOID CARBOXAMIDES” (Rensselaer Polytechnic Institute, priority 2007, published 2014).

The chains behind the UniProt entries cited, without tags or fusion partners.
UniProt P35372, whole entry: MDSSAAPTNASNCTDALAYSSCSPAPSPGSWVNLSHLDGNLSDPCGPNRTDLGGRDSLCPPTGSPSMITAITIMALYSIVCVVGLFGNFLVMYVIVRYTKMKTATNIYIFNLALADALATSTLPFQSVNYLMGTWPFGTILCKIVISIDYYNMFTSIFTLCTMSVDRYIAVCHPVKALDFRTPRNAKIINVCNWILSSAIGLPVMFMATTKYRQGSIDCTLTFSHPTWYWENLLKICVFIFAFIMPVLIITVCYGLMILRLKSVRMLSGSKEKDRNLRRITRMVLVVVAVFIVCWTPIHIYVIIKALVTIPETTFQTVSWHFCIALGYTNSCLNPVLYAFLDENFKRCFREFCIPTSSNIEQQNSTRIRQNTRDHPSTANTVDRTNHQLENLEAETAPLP

The experiment addresses human μ opioid receptor (Homo sapiens, UniProt P35372). Kind of experiment: [35S]GTPγS binding assay, mu (compound alone / with DAMGO). Background: Binding of GTPγS marks nucleotide exchange on a G protein.

Regarding `C[N+]1(CC2CC2)CC[C@]23CC(=O)CC[C@@]2(O)[C@H]1Cc1ccc(C(N)=O)c(O)c13` (stereo partly shown) [Compound 6, 3-Carboxamido-4-hydroxy-naltrexone methiodide], the “agonist properties at the μ opioid receptor” value is “did not display any agonist properties”.
